System: MC38 colon cancer tumor
Assay: MC38 colon cancer tumor model, tumor growth inhibition (Example 1)
Assay type: in vivo, mice
Settings: dosed Day 1, 4, 8, 12; aPD-1 3 mg/kg; IL-2 10,000 IU/animal; eIL-2 groups + US
Experimental: To determine the efficacy of the compositions of the invention, a bolus injection of SonoLeukin (compared to an infusion of rIL-2, e.g., Proleukin), either as a monotherapy or in combination with co-administered aPD-1 was tested for efficacy against tumor growth. Quantities of IL-2 used were provided in a 1 mg sterile sealed vial. For the SonoLeukin, the starting concentration of 1 mg IL-2 was reconstituted using only 0.25 mL of sterile water for injection (SWFI). Imagent microbubbles were reconstituted as per its package insert. Jugular catheters were surgically implanted in a total of 56 animals (8 animals per arm) prior to tumor xenograft inoculation. Treated animals were dosed on Day 1, Day 4, Day 8 and Day 12. Ultrasound (US) device used was a TE7 and P4-2S probe (Mindray North America, New Jersey, USA); settings used were 2.2 MHz frequency, 0.34 mechanical index (MI) during insonation, once every 10 seconds, a microbubble destruct pulse of 1.3 MI lasting 1,100 milliseconds was applied. Total insonation time of 5 minutes per animal was used. […]

IL-2: recombinant Human IL-2 (GenScript), not encapsulated in microbubbles
mean tumor growth inhibition rate (versus control Group 1): 8.97%

Source: patent US12714676B2, “Compositions and methods for targeted delivery of therapeutics using carriers” (VESSELON, INC., priority 2020, dated 2026)
